Molecular target: Norepinephrine transporter (Rattus norvegicus, UniProt Q9WTR4)
Assay: Compound was tested for the inhibition of norepinephrine [3H]NE reuptake into rat cortical membranes
Type: cell membranes, Membrane

By UniProt entry, the sequences of proteins in these tests, tags left out.
UniProt Q9WTR4, whole entry: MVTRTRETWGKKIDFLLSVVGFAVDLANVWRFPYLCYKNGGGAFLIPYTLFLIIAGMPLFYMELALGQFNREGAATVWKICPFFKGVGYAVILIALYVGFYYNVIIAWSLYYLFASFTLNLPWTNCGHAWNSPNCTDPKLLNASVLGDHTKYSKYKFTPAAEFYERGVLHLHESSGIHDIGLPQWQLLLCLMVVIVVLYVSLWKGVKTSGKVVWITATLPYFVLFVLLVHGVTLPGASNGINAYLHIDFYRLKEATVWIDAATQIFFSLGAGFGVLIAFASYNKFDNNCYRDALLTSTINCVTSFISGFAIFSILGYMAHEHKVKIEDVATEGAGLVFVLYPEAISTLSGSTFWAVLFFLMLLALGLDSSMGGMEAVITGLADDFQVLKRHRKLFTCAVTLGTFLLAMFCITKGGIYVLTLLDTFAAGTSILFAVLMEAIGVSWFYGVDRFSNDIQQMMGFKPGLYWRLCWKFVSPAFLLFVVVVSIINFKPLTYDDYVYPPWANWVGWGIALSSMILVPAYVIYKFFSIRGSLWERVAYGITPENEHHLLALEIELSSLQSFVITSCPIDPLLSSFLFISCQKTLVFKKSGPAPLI

## COC(=O)[C@@H]1C2CCC(C[C@@H]1C(=O)Oc1ccccc1)N2C (stereo partly specified)
  Ki: 108 nM
